Source: ChEMBL document CHEMBL1131423, “N-(2-Benzoylphenyl)-L-tyrosine PPARgamma agonists. 2. Structure-activity relationship and optimization of the phenyl alkyl ether moiety” (J Med Chem, 1998)

Legend:
[1] = biological target: T1, Peroxisome proliferator-activated receptor alpha (Homo sapiens, UniProt Q07869); experiment: In vitro transactivation of Peroxisome proliferator activated receptor alpha.; assay type: functional
T1 sequence (Q07869 whole entry): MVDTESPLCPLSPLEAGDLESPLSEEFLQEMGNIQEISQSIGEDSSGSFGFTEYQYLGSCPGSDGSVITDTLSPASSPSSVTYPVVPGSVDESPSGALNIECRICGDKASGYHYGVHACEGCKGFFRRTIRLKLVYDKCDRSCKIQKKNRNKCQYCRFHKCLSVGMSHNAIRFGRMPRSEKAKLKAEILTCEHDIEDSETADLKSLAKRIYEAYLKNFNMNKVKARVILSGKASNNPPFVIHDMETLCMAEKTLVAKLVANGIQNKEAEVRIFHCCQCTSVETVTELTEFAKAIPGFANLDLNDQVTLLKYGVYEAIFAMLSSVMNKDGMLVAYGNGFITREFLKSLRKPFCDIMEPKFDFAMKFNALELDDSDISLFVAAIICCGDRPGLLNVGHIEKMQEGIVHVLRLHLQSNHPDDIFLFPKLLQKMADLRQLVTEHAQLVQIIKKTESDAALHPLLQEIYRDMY

[2] = biological target: T1, Peroxisome proliferator-activated receptor alpha; experiment: Tested in vitro for inhibiting the 50% binding of Peroxisome proliferator activated receptor alpha

SMILES: Cc1oc(-c2ccccc2)nc1CCOc1ccc(C[C@H](Nc2ccccc2C(=O)c2ccccc2)C(=O)O)cc1 [FARGLITAZAR]
- EC50 [1]: 0.457 µM
- Ki [2]: 0.49 µM
